The values below are quoted from earlier work in publication PMC6481172.

Amino acid sequences for entries named in this document (tags omitted).
UniProt Q93009, whole entry: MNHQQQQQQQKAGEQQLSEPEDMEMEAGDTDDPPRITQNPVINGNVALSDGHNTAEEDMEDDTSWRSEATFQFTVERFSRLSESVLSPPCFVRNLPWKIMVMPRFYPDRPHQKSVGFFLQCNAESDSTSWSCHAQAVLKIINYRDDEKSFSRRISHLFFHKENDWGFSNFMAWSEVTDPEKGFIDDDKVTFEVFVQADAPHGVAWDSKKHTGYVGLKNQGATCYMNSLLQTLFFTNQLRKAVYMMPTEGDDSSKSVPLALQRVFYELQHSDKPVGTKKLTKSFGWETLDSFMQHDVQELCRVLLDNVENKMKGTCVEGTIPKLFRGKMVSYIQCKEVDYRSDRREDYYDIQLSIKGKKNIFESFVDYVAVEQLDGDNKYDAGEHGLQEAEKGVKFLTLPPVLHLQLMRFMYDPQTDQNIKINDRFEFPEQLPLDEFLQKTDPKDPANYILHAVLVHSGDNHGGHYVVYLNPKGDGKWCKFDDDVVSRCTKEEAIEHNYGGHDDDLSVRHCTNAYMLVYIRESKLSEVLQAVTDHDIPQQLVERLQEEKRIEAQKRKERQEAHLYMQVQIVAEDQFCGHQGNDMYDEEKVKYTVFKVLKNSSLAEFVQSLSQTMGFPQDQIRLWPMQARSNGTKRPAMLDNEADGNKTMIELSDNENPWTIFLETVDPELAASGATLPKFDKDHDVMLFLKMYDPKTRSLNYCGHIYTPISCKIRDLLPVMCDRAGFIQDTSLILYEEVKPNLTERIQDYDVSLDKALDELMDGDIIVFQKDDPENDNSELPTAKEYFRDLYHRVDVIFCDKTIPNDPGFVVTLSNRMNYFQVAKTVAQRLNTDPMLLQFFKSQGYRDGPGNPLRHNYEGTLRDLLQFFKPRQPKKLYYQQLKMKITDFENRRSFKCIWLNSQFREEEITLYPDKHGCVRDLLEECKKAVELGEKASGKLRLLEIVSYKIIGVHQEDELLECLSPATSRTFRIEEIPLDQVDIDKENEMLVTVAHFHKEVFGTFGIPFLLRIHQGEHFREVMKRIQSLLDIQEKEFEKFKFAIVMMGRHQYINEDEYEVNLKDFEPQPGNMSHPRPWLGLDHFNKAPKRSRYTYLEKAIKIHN

One may read the Kd as the equilibrium constant for the complex coming apart.

The series concerns the target ubiquitin (Homo sapiens) (UniProt P0CG47). Briefly: NMR.

Take USP7 (from UniProt Q93009): the Kd is 106 µM.
